Results: patent US20110028719A1, “SCREENING METHODS FOR AMYLOID BETA MODULATORS” (priority 2006, published 2011)

By UniProt entry, the sequences of proteins in these tests, tags left out. Residues count along the entry.
UniProt P05067, 672-713 limits assumed: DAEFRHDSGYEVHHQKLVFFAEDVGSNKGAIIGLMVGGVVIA

Target: immobilized Aβ fibrils (Homo sapiens, UniProt P05067)
Experiment: FAC-MS assay of free Aβ monomer (indicator) binding to immobilized Aβ fibrils in the presence of test compounds
Settings: FAC-MS shift of free Aβ monomer breakthrough on immobilized Aβ fibrils in presence of the compound; screen of Table 2

Compound: NNc1nc2nonc2nc1NN
- Aβ Shift: 0
